Test results reported in ChEMBL document CHEMBL4715837, “Dimeric aryl-substituted imidazoles may inhibit ALT cancer by targeting the multimeric G-quadruplex in telomere” (Eur J Med Chem, 2020).

Tested on: U2OS
Experiment: Cytotoxicity against human U2OS cells assessed as reduction in cell viability measured after 24 hrs by CCK8 assay
Type: functional, cell-based

With `CN1CCN(c2ccc(-c3nc(-c4ccc(-c5nc(-c6ccc(F)cc6)c(-c6ccc(N7CCN(C)CC7)cc6)[nH]5)cc4)[nH]c3-c3ccc(F)cc3)cc2)CC1` the Activity was “Dose-dependent effect”.
